Columns and labels:
Staphylococcus aureus [1] = settings: ATCC 29213
Staphylococcus aureus [2] = system: Staphylococcus aureus
Staphylococcus aureus [3] = system: Staphylococcus aureus; remark: listed apart in the source

Measured: MIC

GENTAMICIN
0.5 µg/mL: all assays above

From ChEMBL document CHEMBL1687796, “Synthesis and spectrum of the neoglycoside ACHN-490” (2010)
